Source: patent publication US7741491B2, “Diphenylamine-substituted salicylthiazole derivatives and related compounds as phosphotyrosine phosphatase 1B (PTB1B) inhibitors for using as blood-sugar decreasing active ingredients for treating diabetes” (Sanofi-Aventis Deutschland GmbH, priority 2004, dated 2010)

Amino acid sequences for entries named in this document (tags omitted). Residues count along the entry.
UniProt P18031, 1-299 limits assumed: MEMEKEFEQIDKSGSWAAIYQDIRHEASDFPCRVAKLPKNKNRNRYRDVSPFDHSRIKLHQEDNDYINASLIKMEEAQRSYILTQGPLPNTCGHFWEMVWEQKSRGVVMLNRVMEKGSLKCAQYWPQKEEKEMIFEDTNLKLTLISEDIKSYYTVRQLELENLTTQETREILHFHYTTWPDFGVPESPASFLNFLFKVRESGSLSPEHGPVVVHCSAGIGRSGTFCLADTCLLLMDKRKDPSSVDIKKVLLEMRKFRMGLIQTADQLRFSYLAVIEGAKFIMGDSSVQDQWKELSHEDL

Target: human PTP1B (Homo sapiens, UniProt P18031)
Experiment: PTP Assay PTP1B DiFMUP (enzymatic test for inhibition of a phosphatase)
Type: biochemical
Conditions: read-out: IC-50 (μM) PTP Assay PTP1B DiFMUP; recombinant hPTP1B (aa 1-299, expressed in Sf9 cells); substrate DiFMUP per table head

Row | SMILES | IC50 [µM]
1 | COc1c(Nc2nc(-c3ccc(O)c(C(=O)O)c3)cs2)cccc1-c1ccccc1 | 2.6
2 | CCCNC(=O)c1cccc(-c2ccc(Nc3nc(-c4ccc(O)c(C(=O)O)c4)cs3)cc2)c1 | 2.5
3 | CCNC(=O)c1cccc(-c2ccc(Nc3nc(-c4ccc(O)c(C(=O)O)c4)cs3)cc2)c1 | 2.8
4 | O=C(O)c1cc(-c2csc(Nc3cccc(-c4ccccc4)c3)n2)ccc1O | 3.6
5 | CS(=O)(=O)Nc1ccccc1-c1ccc(Nc2nc(-c3ccc(O)c(C(=O)O)c3)cs2)cc1 | 3.8
6 | O=C(Nc1nc(-c2ccc(O)c(C(=O)O)c2)cs1)c1ccc(Oc2ccccc2)cc1 | 3.5
7 | CS(=O)(=O)Nc1cccc(-c2ccc(Nc3nc(-c4ccc(O)c(C(=O)O)c4)cs3)cc2)c1 | 5
8 | O=C(O)c1cc(-c2csc(Nc3ccc(-c4ccccc4)c(C(=O)O)c3)n2)ccc1O | 20.7
9 | Cc1sc(Nc2ccc(-c3ccccc3)cc2)nc1-c1ccc(O)c(C(=O)O)c1 | 1.9
10 | COc1ccc(Nc2nc(-c3ccc(O)c(C(=O)O)c3)cs2)cc1-c1ccccc1 | 2.1
11 | O=C(O)c1ccc(-c2cccc(Nc3nc(-c4ccc(O)c(C(=O)O)c4)cs3)c2)cc1 | 15
12 | O=C(O)c1cc(-c2csc(Nc3ccc(-c4ccc5c(c4)OCO5)cc3)n2)ccc1O | 0.7
13 | O=C(O)c1cc(-c2csc(Nc3ccc(Cc4ccccc4)cc3)n2)ccc1O | 2.8
14 | O=C(O)c1cc(-c2csc(Nc3ccc(-c4ccccc4F)cc3)n2)ccc1O | 1.1
